Values quoted from earlier work, collected in paper PMC8342319, “Predicting blood-to-plasma concentration ratios of drugs from chemical structures and volumes of distribution in humans” (Molecular Diversity, 2021).
Some compounds may have been tested in ways that are not shown here.

Key:
plasma protein = settings: median if multiple values were reported, cited from earlier work
[1] = median if multiple values were reported, ref numbers in Table S1; cited from earlier work
[2] = human, intravenous; median if multiple values were reported; ref numbers in Table S1; cited from earlier work

Compound: CC(C)N1CCC(N(C(=O)Cc2ccccc2)c2ccc(Cl)cc2)CC1
- fp_Human (plasma protein; human plasma free fraction, ref numbers in Table S1): 0.155
- fp Human (free fraction in plasma) (plasma protein; human, collected value, ref: Table S1): 0.155
- Rb Human (blood-to-plasma concentration ratio) [1]: 0.74
- in vivo Vd_(L/kg)_Human [2]: 6.600 L/kg
